{
  "source": "patent US20080081801A1",
  "about": "“PORPHYRIN OXYGEN INFUSION FOR INCREASING CONCENTRATIONS IN TUMOR TISSUES” (priority 2002, published 2008)",
  "test_system": "Ascites hepatoma LY80",
  "assay": "Oxygen partial pressure in tumor tissues of tumor-bearing rats after intra-arterial injection of the sample (phosphorescence quenching, PdPor, OxySpot)",
  "assay_type": "in vivo, Donryu rats",
  "conditions": "oxygen-saturated sample",
  "method": "Animals with cancer were prepared by transplanting tumor cells in desired sites of laboratory animals such as, for example, rats, hamsters, rabbits or beagles. The following is an explanation on transplantation of tumor cells into right femurs of rats.\nRats were bred for several days until tumors develop and then subjected to experiments under anesthesia (e.g., using Nembutal, diethyl ether or halothane anesthetic gas). Rats were intubated through the cervical trachea and ventilated under positive pressure by a respirator. A polyethylene catheter was inserted into a left carotid artery so that a distal end of the catheter is located at a position short of a bifurcation of the common iliac artery, and then backward cannulation was carried out to provide an administration rout of sample in the descending aorta.\nThe oxygen partial pressure in the tumor tissues may be determined by intravenously injecting a phosphorescent probe (palladium coproporphyrin (PdPor)), irradiating light, and monitoring a phosphorescence quenching time with an oxygen partial pressure monitor. […] The oxygen partial pressure in the tumor site of the right leg was measured at 5 to 30 points in air or an atmosphere containing 99% oxygen with a device for measurement of an oxygen partial pressure (e.g., OxySpot (Trademark) made by Medical System Corp.), and served as controls. […]",
  "data": [
    {"substance": "human serum albumin: serum albumin, injected oxygen-saturated without porphyrin", "values": [
      {"measurement": "change in the oxygen partial pressure (PO2) in the tumor tissue", "result": "no change"}
    ]}
  ]
}
